Columns and labels:
Type in all cases: functional
[1] = target: Kappa-type opioid receptor (Homo sapiens, UniProt P41145); experiment: Antagonist activity at human kappa opioid receptor assessed as inhibition of dynorphin A-induced [35S]GTPgammaS binding
[2] = target: Delta-type opioid receptor (Homo sapiens, UniProt P41143); experiment: Antagonist activity at human delta opioid receptor assessed as inhibition of SNC80-stimulated [35S]GTPgammaS binding
Mu-type opioid receptor = Mu-type opioid receptor (Homo sapiens, UniProt P35372); experiment: Antagonist activity at human mu opioid receptor assessed as inhibition of DAMGO-stimulated [35S]GTPgammaS binding

Amino acid sequences for entries named in this document (tags omitted). A change or cut given only in a name is not applied to a line headed by its entry.
UniProt P41145: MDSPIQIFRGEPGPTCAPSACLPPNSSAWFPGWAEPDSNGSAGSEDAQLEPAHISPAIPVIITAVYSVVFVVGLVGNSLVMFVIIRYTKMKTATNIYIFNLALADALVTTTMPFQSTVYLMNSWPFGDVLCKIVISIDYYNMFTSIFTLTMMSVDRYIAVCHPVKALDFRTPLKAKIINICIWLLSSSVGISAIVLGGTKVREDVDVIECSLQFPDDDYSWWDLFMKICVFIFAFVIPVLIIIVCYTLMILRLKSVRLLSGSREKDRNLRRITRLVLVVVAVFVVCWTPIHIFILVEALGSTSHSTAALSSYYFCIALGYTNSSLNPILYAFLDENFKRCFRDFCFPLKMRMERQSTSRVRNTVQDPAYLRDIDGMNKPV
UniProt P41143, whole entry: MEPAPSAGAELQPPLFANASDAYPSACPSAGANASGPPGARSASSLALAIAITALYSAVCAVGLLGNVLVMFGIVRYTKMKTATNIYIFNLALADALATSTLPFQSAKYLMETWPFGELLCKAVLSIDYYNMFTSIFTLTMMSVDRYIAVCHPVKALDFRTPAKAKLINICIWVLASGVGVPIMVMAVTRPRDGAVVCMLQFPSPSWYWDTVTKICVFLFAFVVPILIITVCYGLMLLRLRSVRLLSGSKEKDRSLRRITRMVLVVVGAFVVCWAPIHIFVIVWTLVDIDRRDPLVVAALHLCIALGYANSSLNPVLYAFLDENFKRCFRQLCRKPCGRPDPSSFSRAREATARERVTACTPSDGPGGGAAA
UniProt P35372, whole entry: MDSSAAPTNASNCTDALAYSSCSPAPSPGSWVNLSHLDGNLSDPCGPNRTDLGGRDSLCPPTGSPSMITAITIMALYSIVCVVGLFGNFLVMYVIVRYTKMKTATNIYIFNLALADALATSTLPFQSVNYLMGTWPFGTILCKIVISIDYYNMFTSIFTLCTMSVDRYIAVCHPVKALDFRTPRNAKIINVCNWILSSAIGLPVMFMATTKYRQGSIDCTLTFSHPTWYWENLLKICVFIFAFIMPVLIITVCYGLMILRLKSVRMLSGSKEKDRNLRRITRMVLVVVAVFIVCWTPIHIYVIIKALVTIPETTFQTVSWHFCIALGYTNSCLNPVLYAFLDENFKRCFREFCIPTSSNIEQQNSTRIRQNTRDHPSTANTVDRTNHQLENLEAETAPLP

CC(c1ccncc1)N1[C@@H]2CC[C@H]1C[C@H](Oc1cccc(C(N)=O)c1)C2 (stereo partly specified)
IC50 [1]: 1410 nM

Cc1cccc(CN2[C@@H]3CC[C@H]2C[C@H](Oc2cccc(C(N)=O)c2)C3)c1
IC50 [2]: 11100 nM
IC50 [1]: 148 nM
IC50 (Mu-type opioid receptor): 2650 nM

C[C@H](c1ccc(Cl)nc1)N1[C@@H]2CC[C@H]1C[C@H](Oc1cccc(C(N)=O)c1)C2
IC50 [1]: 90 nM
IC50 (Mu-type opioid receptor): 1940 nM
